# Reference: patent US20070037194A1, “Allelic variation in the serotonin transporter (SERT) as an indicator of autism” (priority 2005, published 2007)
# System: SERT Ala56
# Assay type: cell-based, human
# Description: FIGS. 3A-B. SERT is refractory to regulation through PKG and p38 MAP kinase signaling pathways. […] Homozygous Ala56 cells (10^6/tube) were preincubated for various times at 37° C. with 10 μM 8BrcGMP prior to [^3H]5-HT transport assays. […]. Findings were replicated with identical results in an additional line for each genotype.
# Functional Analysis of Gly56Ala Activity and Regulation. EBV-transformed lymphocyte cell lines from AGRE or Tufts/Vanderbilt autism families carrying either the Gly56 or 56Ala alleles were obtained from the NIMH Human Genetics Initiative Repository (www.nimhgenetics.org/) at Rutgers University. Lymphocytes were cultured in suspension in RPMI 1640 medium (supplemented with 15% fetal bovine serum, 2 mM L-glutamine, 100 units/ml penicillin, and 100 μg/ml streptomycin) at 37° C. in a humidified incubator at 5% CO2 prior to assay. Lymphocytes were pelleted at 1500 rpm, 5 min and washed with KRH assay buffer. […] After a 5-min incubation with [^3H]5-HT (20 nM) at 37° C., uptake assays were terminated by immersion on ice, and uptake in pelleted, 1% SDS-extracted cells quantitated by scintillation spectrometry. Specific 5-HT uptake was determined by subtracting the amount of [^3H]5-HT accumulated in the presence of 10 μM paroxetine (SmithKline Beecham). […]
structure (smiles),measurement,value
COc1ccc(C[C@H]2NC[C@H](O)[C@H]2OC(C)=O)cc1 [anisomycin],sensitivity of SERT Ala56 [3H]5-HT transport to the p38 MAPK activator anisomycin,lacks sensitivity
